Measurements published in article PMC2634297 (Bioorganic & medicinal chemistry letters, 2008).

Chains of the proteins cited; added tags and fusions are not shown. Lines headed by an entry give the natural chain unless they say otherwise; changes in a name come on top.
UniProt Q99LR1: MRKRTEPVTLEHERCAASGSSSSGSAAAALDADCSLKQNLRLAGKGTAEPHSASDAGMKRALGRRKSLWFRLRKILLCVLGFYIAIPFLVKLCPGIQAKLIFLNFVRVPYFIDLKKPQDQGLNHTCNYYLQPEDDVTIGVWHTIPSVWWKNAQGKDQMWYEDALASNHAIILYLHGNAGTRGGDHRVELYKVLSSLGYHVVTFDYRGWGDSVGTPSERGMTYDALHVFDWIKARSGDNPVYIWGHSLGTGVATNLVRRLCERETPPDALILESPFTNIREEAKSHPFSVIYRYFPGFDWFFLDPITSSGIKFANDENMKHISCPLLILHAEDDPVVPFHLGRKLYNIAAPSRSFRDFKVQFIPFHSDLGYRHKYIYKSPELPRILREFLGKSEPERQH

Target: ABHD12 (Mus musculus, UniProt Q99LR1)

CCCCCCCCCCC[C@@H](C[C@@H]1OC(=O)[C@H]1CCCCCC)OC(=O)[C@H](CC(C)C)NC=O [THL, tetrahydrolipstatin]
inhibition of recombinant ABHD12 (in words): selectively blocked
